AlphaSeq binding of Ab-14 light chain variants to a spike HR2 peptide

Reference: Engelhart et al. 2022, doi:10.1038/s41597-022-01779-4. File: FLAb, binding data.

The target is the same throughout: PDVDLGDISGINAS, from the HR2 region of SARS-CoV-2 spike.

Parent: Ab-14, a human scFv built as VH, a (GGGGS)3 linker, VL. Only the CDRs of the light chain vary.
VH: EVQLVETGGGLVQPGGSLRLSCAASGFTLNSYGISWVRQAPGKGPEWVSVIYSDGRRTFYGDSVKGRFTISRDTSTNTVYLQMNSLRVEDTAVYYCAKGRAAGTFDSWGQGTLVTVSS
VL: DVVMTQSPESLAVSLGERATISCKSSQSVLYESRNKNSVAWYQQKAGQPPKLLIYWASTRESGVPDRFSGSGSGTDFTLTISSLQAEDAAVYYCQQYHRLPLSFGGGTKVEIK

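The parent was found by panning a naive human phage display library on the peptide. The library (AAYL50) carries one to three amino acid substitutions per variant, with no insertions or deletions. In AlphaSeq, yeast of one mating type display the scFv and yeast of the other type display the target. The frequency of each diploid, read from paired DNA barcodes, reflects how well the two displayed proteins bind. Read counts were normalised to the haploid input and turned into Kd by a linear fit to BCL2-family pairs of known affinity, for each replicate. There are three technical replicates.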

Sequences are complete VL domains. Every variant below is changed at E61 of the VL (sequential numbering). Affinities are written as log10 Kd with Kd in nM; a lower number is a better binder. Replicates are averaged; those with no signal do not enter the mean. "nd" marks a missing value. The strain was present, yet no cells mated with the target were sequenced in that replicate, which points to weak or no binding. Three control strains display no target. For library AAYL50, 18% of the pairings with them gave a signal, with a median of 4.19 and one signal in twenty below 2.99, so weak values seen in few replicates may be background. Parent in this assay: reference entry 0.65, copy in this library 1.68.

Variant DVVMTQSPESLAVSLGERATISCKSSQSVLYESRNKNSVAWYQQKAGQPPKLLIYWASTRMPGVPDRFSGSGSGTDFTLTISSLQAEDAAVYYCQMYHRLPLSFGGGTKVEIK gave 1.11, 1.52, 1.33 (mean 1.32).
Variant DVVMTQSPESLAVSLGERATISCKSSLSVLYESRNKNSVAWYQQKAGQPPKLLIYWASTRKSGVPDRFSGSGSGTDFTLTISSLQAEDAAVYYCQQYHRRPLSFGGGTKVEIK gave nd, nd, nd.
Variant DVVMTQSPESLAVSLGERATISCKDSQSVLYESRNKNPVAWYQQKAGQPPKLLIYWASTRGSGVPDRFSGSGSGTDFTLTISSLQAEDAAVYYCQQYHRLPLSFGGGTKVEIK gave 4.22, nd, nd.
Variant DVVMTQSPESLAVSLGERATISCKSSISVEYESRNKNSVAWYQQKAGQPPKLLIYWASTRISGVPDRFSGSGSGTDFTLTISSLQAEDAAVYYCQQYHRLPLSFGGGTKVEIK gave 0.70, 0.85, 0.84 (mean 0.80).
Variant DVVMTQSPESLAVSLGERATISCKSSQVVLYESRNKNSVAWYQQKAGQPPKLLIYWAFTRISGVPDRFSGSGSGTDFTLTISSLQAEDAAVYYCQQYHRLPLSFGGGTKVEIK gave nd, nd, nd.
Variant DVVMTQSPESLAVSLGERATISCKSSQSVLYESRNKNVVAWYQQKAGQPPKLLIYWDSTRASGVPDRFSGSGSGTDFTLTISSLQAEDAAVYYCQQYHRLPLSFGGGTKVEIK gave nd, nd, nd.
Variant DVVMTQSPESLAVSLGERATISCKSSQSALPESRNKNSVAWYQQKAGQPPKLLIYWASTRCSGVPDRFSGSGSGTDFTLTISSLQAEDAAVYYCQQYHRLPLSFGGGTKVEIK gave 0.56, 0.79, 0.72 (mean 0.69).
Variant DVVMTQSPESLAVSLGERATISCKSSQSVLYESNNKNSVAWYQQKAGQPPKLLIYWASTRASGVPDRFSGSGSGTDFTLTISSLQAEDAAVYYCQQYHALPLSFGGGTKVEIK gave nd, nd, nd.
Variant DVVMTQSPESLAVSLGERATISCKSSQSVLYESRNKNSVAWYQQKAGQPPKLLIYWASTRISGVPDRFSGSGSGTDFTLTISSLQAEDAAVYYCQQYARLPLSFGGGTKVEIK gave 1.64, 1.50, 1.67 (mean 1.60).
Variant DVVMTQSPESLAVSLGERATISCKSSQSVLYESRCNNSVAWYQQKAGQPPKLLIYWASTRKSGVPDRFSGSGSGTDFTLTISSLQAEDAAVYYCQQYHRLPLSFGGGTKVEIK gave 2.76, 2.71, 3.68 (mean 3.05).
Variant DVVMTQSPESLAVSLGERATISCKSSQSVLYESRVKNSVAWYQQKAGQPPKLLIYWASTRKSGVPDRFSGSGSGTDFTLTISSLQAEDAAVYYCQQYHRLPLSFGGGTKVEIK gave nd, nd, nd.
Variant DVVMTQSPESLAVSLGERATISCKSSQSVLYESRNENSVAWYQQKAGQPPKLLIYWASTRKSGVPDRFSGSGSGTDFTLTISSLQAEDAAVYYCQQYHRLPLRFGGGTKVEIK gave 0.93, 1.41, 1.25 (mean 1.19).
Variant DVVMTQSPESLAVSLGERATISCKKSQSVLYTSRNKNSVAWYQQKAGQPPKLLIYWASTRRSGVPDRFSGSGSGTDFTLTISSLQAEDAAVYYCQQYHRLPLSFGGGTKVEIK gave 6.47, 4.71, 5.97 (mean 5.72).
Variant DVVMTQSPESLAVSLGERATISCKSSQSVLYESRNKNSVAWYQQKAGQPPKLLIYWASTECSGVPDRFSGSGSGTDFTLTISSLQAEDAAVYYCQQYHRLPLYFGGGTKVEIK gave nd, nd, nd.
Variant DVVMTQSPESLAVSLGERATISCKSSQSVLYESPNKNSVAWYQQKAGQPPKLLIYWASTRSSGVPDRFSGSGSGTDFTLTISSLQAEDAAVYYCQQYHRLPLSFGGGTKVEIK gave nd, nd, nd.
Variant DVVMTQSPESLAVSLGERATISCKSPQSVLYESANKNSVAWYQQKAGQPPKLLIYWASTRTSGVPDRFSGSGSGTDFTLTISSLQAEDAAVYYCQQYHRLPLSFGGGTKVEIK gave 0.88, 1.16, 1.14 (mean 1.06).
Variant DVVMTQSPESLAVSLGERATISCKSSQSVLYESRNKNSVAWYQQKAGQPPKLLIYWASTRVSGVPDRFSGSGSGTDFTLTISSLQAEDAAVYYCYQYHRLPLKFGGGTKVEIK gave nd, nd, nd.
Variant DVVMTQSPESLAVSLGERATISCKSSQSVLYESRNKNSVQWYQQKAGQPPKLLIYWASTRYSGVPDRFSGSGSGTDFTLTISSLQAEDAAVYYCQQYHRLPLQFGGGTKVEIK gave nd, nd, nd.
Variant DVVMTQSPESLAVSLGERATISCKSSQSVMYESRNKNSVAWYQQKAGQPPKLLIYWASTRAEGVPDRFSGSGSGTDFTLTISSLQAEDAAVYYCQQYHRLPLSFGGGTKVEIK gave -0.03, 0.32, 0.13 (mean 0.14).
Variant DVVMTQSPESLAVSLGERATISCKSSQSVLYESRNKNSVAWYQQKAGQPPKLLIYWASTRYSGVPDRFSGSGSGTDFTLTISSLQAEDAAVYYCQQYHRLPLSFGGGTKVEIK gave 1.01, 1.08, 1.09 (mean 1.06).
Variant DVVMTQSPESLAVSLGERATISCKSSQSVLYESRNKNFVAWYQQKAGQPPKLLIYWASTRRSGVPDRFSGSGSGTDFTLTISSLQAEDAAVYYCQQYHRLPLFFGGGTKVEIK gave nd, nd, nd.
Variant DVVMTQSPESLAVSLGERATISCKSSQSVLYMSRNKRSVAWYQQKAGQPPKLLIYWASTRASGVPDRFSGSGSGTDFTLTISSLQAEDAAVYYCQQYHRLPLSFGGGTKVEIK gave 2.41, 2.26, 2.34 (mean 2.33).
Variant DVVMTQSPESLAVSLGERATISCKSSQSVLYESRNKNSVAWYQQKAGQPPKLLIYWASTRQSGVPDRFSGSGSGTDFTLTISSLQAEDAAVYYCRQYHRLPLSFGGGTKVEIK gave nd, 4.42, nd.
Variant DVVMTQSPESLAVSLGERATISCKSSQSVLYESRNKNSVAWYQQKAGQPPKLLIYWASTRMSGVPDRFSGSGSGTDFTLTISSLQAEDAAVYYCQQNHRLPLSFGGGTKVEIK gave 1.68, 1.69, 1.81 (mean 1.73).
Variant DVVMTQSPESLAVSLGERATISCKSSQQVLYESRVKNSVAWYQQKAGQPPKLLIYWASTRWSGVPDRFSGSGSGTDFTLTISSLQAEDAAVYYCQQYHRLPLSFGGGTKVEIK gave 3.39, 3.00, 3.18 (mean 3.19).

Picked from the list: the 2 lowest averages where every replicate gave a value.

| VL | log10 Kd, replicates | mean log10 Kd (nM) |
|---|---|---|
| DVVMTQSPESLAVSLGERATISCKSSQSVMYESRNKNSVAWYQQKAGQPPKLLIYWASTRAEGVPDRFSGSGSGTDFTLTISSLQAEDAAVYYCQQYHRLPLSFGGGTKVEIK | -0.03, 0.32, 0.13 | 0.14 |
| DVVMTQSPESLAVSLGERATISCKSSQSALPESRNKNSVAWYQQKAGQPPKLLIYWASTRCSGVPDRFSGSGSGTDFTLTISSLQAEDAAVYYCQQYHRLPLSFGGGTKVEIK | 0.56, 0.79, 0.72 | 0.69 |